Source: PubChem BioAssay AID493014 (National Center for Advancing Translational Sciences (NCATS), 2011)
The list shows a part of the results, in another mix than the full data. Records with an inconclusive call do not appear. Activity calls are given as the source filed them. Calls come from the whole dose curve; as a rule, active = well fitted inhibition curve with a large enough effect in the signal ratio, with a control signal flat (not every such curve was filed as active); inconclusive = small, poorly fitted or top-dose-only effect, or effect the other way, or a change in a side signal; inactive = flat fitted curve, though single readings scatter; the % refers to the signal ratio.

Experiment: qHTS Assay to Find Inhibitors of Chronic Active B-Cell Receptor Signaling;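 note: plate controls were basal doxycycline-induced cells for no effect and cells given 10 µM MG132 for full effect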
Conditions: ABC-DLBCL IkBa-CBG/CBR reporter, luminescence ratio (green luciferase fused to IkBa over red control in TMD8 lymphoma cells), 4 h; at 46.1 µM (top of the series)
Excerpt: NIH Molecular Libraries Probe Production Network [MLPCN] NIH Chemical Genomics Center [NCGC] MLPCN Grant: 1 R03 DA031086-01A1 PI Name: Dr. R. Eric Davis NCGC Assay Overview: Diffuse large B-cell lymphoma (DLBCL) is the most common category of non-Hodgkin lymphoma, with ~20,000 new cases per year in the United States. DLBCL should be regarded as a collection of different neoplasms. Microarray gene expression analysis has defined two principal types of DLBCL, named for their similarity to normal B cell stages or activation states: a germinal center B-cell (GCB) type, and an activated B-cell (ABC) type. […] Following the addition of doxycycline to induce expression of the luciferases, the green luminescence in control cultures rises only slowly because the CBG fusion partner IkappaBalpha is targeted by IKK activity for rapid degradation. In contrast, green luminescence rises rapidly in the presence of proteasome inhibitors or IKK inhibitors. The rise in red luminescence of CBR is not affected by proteasome or IKK inhibitors, and serves as normalization for cell number and nonspecific effects. […]
NCGC Assay Protocol Summary: Cells were seeded in 1536-well plates at 5000 cells/4uL in IMDM medium containing 0.5% FBS, w/o phenol red, 1% penicillin/streptomycin. […] The plates were measured on a ViewLux plate reader for green luminescence (540/20 nm filter) and red luminescence (618/8 nm filter). […]

Compound	activity change, negative = inhibition
CCC(=O)N(c1ccccc1)C1(COC)CCN(CCc2cccs2)CC1	inactive: -1.96%
CCC(=O)N(c1ccccc1)C1(COC)CCN(CCn2nnn(CC)c2=O)CC1	inactive: -0.74%
